Reference: patent publication US6380248B1, “Metal-thiols as immunomodulating agents” (Winthrop University Hospital, priority 1998, dated 2002)

Tested on: mice
Assay: Toxicity / lethality to mice

Substance: bismuth:dimercaprol
- molar ratio of greatest toxicity to mice (bismuth:thiol molar ratio): most toxic to mice at a 1:2 molar ratio
- less toxic than bismuth or dimercaprol alone (given intraperitoneally to mice): 4 to 6 fold
